Source: ChEMBL document CHEMBL4177706, “Exploiting a water network to achieve enthalpy-driven, bromodomain-selective BET inhibitors” (Bioorg Med Chem, 2018)

Legend:
NALM-6 = experiment: cells; settings: Homo sapiens, NALM-6, 120 h
LOUCY = experiment: Cytotoxicity against human Loucy cells assessed as reduction in cell viability after 5 days by CellTiter-Glo assay; settings: 120 h
[1] = Cytotoxicity against human HD-MB03 cells assessed as reduction in cell viability after 5 days by CellTiter-Glo assay; settings: HD-MB03, 120 h
697 = experiment: cells; settings: Homo sapiens, 697, 120 h
[2] = Cytotoxicity against human NALM16 cells assessed as reduction in cell viability after 5 days by CellTiter-Glo assay; settings: NALM16, 120 h

Measured: EC50

COc1cc(OC)c2c(=O)[nH]c(-c3cc(C)c(OCCO)c(C)c3)nc2c1 [APABETALONE]
> 5 µM: NALM-6 | LOUCY | [1] | 697 | [2]
